Earlier results as cited in patent US6489350B1, “Methods for treating neuropathic pain using heteroarylmethanesulfonamides” (Elan Pharmaceuticals, Inc., priority 1999, dated 2002).

System: common receptor sites (benzodiazepine, glutamate, NMDA, quisqualate, kainate, glycine, adrenergic, adenosine, cholinergic, dopamine, histamine H1, serotonin …)
Conditions: concentrations up to 100 μM; cited from earlier work

## NCC1(CC(=O)O)CCCCC1 [Gabapentin, 1-(aminomethyl)cyclohexaneacetic acid]
  Affinity for common receptor sites in radioligand binding assays: did not exhibit affinity
